{"source": "patent US20120039826A1", "about": "“COSMETIC COMPOSITION FOR SKIN LIGHTENING” (priority 2009, published 2012)", "tested_on": "Keratinocytes (HaCaT cells)", "assay": "Keratinocyte differentiation assay", "assay_type": "cell-based", "details": "HaCaT cells cultured with active 24 hours, acridine orange, % of control (control = 100)", "protocol": "Keratinocyte Differentiation Assay\nThis is an in vitro cell culture based assay to evaluate the capability of these actives to alter cell differentiation process. Keratinocytes (HaCaT cells—5×10^4 cells/well) were grown in 24 well plates for 24 hours. These proliferating keratinocytes were further cultured with actives for 24 hours. Cells were then washed with PBS and stained with acridine orange in PBS (Sigma Chemical Co, USA). Cells were washed 15 minutes later and viewed using an epi-fluorescent microscope (Olympus BX 50), at 20× magnification, using appropriate excitation and barrier filters, to simultaneously view red and green fluorescence (excitation: 460 nm and emission >515 nm). The entire plate was scanned and the percentage of differentiated keratinocytes (cells with red fluorescence evenly distributed within the cytoplasm) was estimated. Data were represented as % of control. Higher % values indicate increased cell differentiation. The efficacy of various substances in the cell differentiation assay is tabulated below."}
{"smiles": "CC(=O)[O-].[K+]", "note": "[Potassium acetate]", "values": [{"measurement": "% Differentiation", "setting": "concentration 0.002%", "value": 250, "unit": "%"}, {"measurement": "% Differentiation", "setting": "concentration 0.01%", "value": 253, "unit": "%"}]}
